In ChEMBL document CHEMBL3813591, “Tasiamide F, a potent inhibitor of cathepsins D and E from a marine cyanobacterium” (Bioorg Med Chem, 2016) one finds IC50 data, which are given here for one compound.

By UniProt entry, the sequences of proteins in these tests, tags left out. Residues count along the entry.
UniProt P07339, 65-162 limits assumed: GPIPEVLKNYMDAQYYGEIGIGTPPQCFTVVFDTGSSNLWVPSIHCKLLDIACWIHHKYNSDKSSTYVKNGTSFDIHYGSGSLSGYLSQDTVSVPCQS
UniProt P07339, 169-412 limits assumed: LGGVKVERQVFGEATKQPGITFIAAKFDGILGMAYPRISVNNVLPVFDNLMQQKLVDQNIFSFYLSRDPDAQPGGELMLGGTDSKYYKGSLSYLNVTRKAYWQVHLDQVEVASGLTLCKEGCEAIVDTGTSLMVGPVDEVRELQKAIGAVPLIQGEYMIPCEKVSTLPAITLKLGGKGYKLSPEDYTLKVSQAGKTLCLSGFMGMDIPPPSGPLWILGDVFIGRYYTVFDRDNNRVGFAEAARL

Structures are written as SMILES.

The assay deals with Cathepsin D (Homo sapiens, UniProt P07339). As to the kind of experiment: Inhibition of human liver cathepsin D using Mca-Gly-Lys-Pro-Ile-Leu-Phe-Phe-Arg-Leu-Lys-(Dnp)-D-Arg-NH2 as substrate preincubated for 15 mins followed by substrate addition measured every 5 mins for 120 mins by fluorescence analysis.

As usually defined, the IC50 is the midpoint of a concentration-inhibition curve. Lower therefore signals greater potency. Compound `COC(=O)[C@@H]1CCCN1C(=O)[C@@H](Cc1ccccc1)N(C)C(=O)[C@H](C)NC(=O)[C@H](CC(C)C)NC(=O)C[C@H](O)[C@H](Cc1ccccc1)NC(=O)[C@H](CCC(N)=O)N(C)C(=O)[C@@H](NC(=O)[C@H](C)O)C(C)C` had an IC50 of 50 nM.
